Reference: patent publication US12583908B2, “Albumin protein variants, production thereof and uses of same” (Yeda Research and Development Co. Ltd., priority 2022, dated 2026)

Tests used:
HEK293T cells = experiment: HEK293T cell culture with albumin variants; assay type: cell-based, human; conditions: 1 mg/ml albumin, medium with 5% FBS, 5 days
Experimental: HEK293T adherent cells were grown in DMEM supplemented with GlutaMAX, NEAA and 5% FBS (all from Gibco) at 37° C., 5% CO2. To test the viability of the cultured cells in the presence of PROSS BSA2, HSA1 and HSA3 in comparison to the commercial BSA or HSA, respectively, cells (˜3×10^3) were seeded in 24-well plate and followed each day for 5 days. All the albumin variants were added to the cells at 1 mg/ml in duplicates, and their effect was analyzed. As a control, no protein was added to the growth medium. In each time point, cells were collected and the number of total cells, live cells and % of viable cells were determined automatically using Brightfield Cell Counter DeNovix.

[1] = Thermal stability by nanoDSF; assay type: physicochemical; conditions: His-tagged variants and commercial WT; 20 to 95° C. at 1° C./min
Experimental: Thermal stability measurements. Thermal stability of BSA and HSA variants (His-tagged form) and of commercial WT HSA and BSA (Sigma-Aldrich A1653 and A7638, respectively) was measured by nanoscale differential scanning fluorimetry (nanoDSF), in Prometheus NT.48 instrument (NanoTemper). The temperature was increased from 20° C. to 95° C. at 1° C./min ramp. Thermal stability of HSA variants was also measured by differential scanning calorimetry (DCS) in VP-DSC instrument (Malvern), with heating from 20° C. to 95° C. at 1° C./min and cooling at the same rate.

Question: With “HSA WT: wild type human serum albumin, SEQ ID NO: 1; commercial sample Sigma-Aldrich A1653 used as control [reference compound]” as the substance, how does the “Effect on number of HEK293T cells” value (HEK293T cells) read?
Answer: Its value is “no adverse effect”.

Question: What about the “Effect on viability of HEK293T cells” value (HEK293T cells) of the same substance?
Answer: Its value is “no adverse effect”.

Question: What about the “Melting temperature nanoDSF” value [1] of the same substance?
Answer: The value was 60 °C.
